According to patent publication KR20140009174A:

Target: CXCR4/Rluc + CXCR4/YFP (HEK293 세포의 CXCR4 동종이량체 BRET 파트너) (human; Renilla reniformis) (UniProt P61072)
Test: cell-based or functional assay

BRET 신호 증가 (SDF1 100 nM): 10% | BRET 신호 증가 (SDF1 300 nM): 20%
Substance: SDF-1 (간질세포-유래 인자-1, CXCL12) (from UniProt P48061 22-89) (ligand)
